Results as given in patent US11993599B2, “Therapeutic compounds” (Genentech, Inc., priority 2021, dated 2024).
pIC50: −log10 of the molar value.

Protein sequences, listed by entry. Tags and fused reporters are not part of them.
UniProt P51531, whole entry: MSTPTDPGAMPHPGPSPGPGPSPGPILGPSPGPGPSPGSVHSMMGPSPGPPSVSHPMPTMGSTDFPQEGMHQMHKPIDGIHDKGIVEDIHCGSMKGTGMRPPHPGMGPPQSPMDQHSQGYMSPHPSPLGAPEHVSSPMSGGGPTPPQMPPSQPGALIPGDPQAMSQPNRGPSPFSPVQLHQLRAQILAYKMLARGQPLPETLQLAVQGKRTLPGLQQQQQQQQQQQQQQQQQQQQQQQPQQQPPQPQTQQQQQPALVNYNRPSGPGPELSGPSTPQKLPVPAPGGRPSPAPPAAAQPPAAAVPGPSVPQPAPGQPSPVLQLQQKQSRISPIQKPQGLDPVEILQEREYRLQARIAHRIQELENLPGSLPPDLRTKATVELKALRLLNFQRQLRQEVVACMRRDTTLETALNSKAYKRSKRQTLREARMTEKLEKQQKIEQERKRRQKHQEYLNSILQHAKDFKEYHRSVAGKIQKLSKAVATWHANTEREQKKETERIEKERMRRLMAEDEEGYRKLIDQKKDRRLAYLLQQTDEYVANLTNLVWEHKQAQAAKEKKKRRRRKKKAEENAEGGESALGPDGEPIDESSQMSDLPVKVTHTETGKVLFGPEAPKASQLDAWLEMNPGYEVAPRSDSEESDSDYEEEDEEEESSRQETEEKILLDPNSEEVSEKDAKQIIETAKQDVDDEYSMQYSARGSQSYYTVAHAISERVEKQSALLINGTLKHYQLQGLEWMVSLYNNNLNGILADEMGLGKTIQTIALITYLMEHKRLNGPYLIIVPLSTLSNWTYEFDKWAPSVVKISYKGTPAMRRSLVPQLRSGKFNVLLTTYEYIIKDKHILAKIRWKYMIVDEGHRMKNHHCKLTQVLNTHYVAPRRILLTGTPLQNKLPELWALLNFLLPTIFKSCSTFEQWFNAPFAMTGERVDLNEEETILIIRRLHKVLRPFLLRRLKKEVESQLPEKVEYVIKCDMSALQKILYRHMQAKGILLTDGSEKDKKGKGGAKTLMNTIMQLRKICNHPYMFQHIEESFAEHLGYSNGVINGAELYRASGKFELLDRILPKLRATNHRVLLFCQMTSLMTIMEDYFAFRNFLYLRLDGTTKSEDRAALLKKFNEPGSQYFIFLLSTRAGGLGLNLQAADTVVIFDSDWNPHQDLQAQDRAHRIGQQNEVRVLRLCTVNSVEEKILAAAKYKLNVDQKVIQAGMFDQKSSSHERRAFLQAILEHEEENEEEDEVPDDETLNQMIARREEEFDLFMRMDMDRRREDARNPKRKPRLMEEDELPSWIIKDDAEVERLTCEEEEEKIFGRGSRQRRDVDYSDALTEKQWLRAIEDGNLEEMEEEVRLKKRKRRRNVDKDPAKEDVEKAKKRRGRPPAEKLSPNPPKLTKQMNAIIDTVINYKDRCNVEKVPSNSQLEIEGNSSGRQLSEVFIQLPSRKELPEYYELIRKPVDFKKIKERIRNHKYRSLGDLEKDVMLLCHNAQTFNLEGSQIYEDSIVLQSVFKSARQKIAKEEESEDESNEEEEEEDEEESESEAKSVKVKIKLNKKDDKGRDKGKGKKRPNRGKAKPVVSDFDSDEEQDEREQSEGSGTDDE
UniProt P51532, whole entry: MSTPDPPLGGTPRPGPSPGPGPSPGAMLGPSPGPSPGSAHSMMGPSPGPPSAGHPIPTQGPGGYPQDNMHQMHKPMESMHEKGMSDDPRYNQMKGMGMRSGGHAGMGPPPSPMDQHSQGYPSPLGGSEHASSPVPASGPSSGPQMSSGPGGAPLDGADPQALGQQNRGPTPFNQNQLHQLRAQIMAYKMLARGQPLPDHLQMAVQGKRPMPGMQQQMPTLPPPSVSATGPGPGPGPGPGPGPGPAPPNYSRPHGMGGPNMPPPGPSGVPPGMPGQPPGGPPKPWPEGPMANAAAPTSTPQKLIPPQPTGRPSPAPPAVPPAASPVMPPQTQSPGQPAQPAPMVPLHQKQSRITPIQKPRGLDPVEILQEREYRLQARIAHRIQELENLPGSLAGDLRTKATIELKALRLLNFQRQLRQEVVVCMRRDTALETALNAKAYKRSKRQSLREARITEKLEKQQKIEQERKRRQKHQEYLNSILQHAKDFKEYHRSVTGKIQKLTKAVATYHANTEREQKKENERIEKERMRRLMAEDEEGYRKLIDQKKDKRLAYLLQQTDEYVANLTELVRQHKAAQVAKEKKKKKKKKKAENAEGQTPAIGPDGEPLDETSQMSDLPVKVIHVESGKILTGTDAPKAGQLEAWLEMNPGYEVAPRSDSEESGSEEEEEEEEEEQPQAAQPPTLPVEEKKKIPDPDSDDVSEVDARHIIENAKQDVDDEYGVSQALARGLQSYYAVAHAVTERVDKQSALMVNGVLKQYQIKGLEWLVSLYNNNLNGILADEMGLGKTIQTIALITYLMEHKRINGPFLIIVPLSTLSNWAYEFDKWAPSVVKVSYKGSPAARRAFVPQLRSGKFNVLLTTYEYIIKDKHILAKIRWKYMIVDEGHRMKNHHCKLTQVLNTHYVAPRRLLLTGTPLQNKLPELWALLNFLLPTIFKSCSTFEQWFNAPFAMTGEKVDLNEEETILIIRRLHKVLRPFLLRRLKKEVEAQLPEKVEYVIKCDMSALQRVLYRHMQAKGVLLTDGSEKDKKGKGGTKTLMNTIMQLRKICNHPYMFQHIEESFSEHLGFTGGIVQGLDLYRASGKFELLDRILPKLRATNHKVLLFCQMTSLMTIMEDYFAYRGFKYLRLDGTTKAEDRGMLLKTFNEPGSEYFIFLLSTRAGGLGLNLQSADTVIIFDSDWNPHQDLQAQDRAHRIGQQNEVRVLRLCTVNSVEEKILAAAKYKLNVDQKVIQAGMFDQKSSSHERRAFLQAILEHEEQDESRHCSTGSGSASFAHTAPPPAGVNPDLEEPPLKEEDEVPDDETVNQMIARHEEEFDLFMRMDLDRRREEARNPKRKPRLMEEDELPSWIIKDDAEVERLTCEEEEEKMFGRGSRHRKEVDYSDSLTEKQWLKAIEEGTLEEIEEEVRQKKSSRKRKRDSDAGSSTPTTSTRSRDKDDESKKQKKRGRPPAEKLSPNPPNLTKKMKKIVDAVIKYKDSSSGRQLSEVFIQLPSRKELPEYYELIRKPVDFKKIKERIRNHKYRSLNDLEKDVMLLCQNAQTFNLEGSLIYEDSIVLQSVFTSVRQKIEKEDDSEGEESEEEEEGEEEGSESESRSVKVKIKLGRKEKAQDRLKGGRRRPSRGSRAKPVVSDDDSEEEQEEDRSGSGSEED

Columns and labels:
[1] = molecular target: BRM (Homo sapiens, UniProt P51531); test: Immunofluorescence assay for BRM degradation in SW1573 cells
Protocol: (§1) Example B-2: Immunofluorescence Assay for BRM and BRG1 Degraders
(§2) SW1573 cells were seeded at 3000 cells/well in 384 well plates. The next day, compounds were added using an Echo dispenser. After 20 hours of incubation with compound, cells were fixed with 4% formaldehyde then permeabilized with 0.2% Triton X-100 and blocked with 10% FCS. Fixed and permeabilized cells were treated overnight at 4° C. with either BRM primary antibody (Cell signaling Cat #11966) or BRG primary antibody (Abcam, ab 110641). Finally, cells were treated with fluorescently labeled secondary antibodies for 1 hr (Donkey anti-Rabbit IgG AF488, Life Technologies, A21206) and Hoechst nuclear stain (#H3569) was added for 30 minutes. Cells were washed with PBS in between each step and before imaging on an Opera Phenix microscope (Perkin Elmer). Harmony software (Perking Elmer) was used to quantify the mean nuclear signaling intensity of BRM or BRG signaling per cell in each well. Dose responses were determined from the concentration dependent response of mean nuclear signal intensity with data normalized to a known degrader control. Dose response curves were fit to a floating maximum to allow for calculation of the Dmax.
(§3) Note that, in Table 5, the “Compound Number” corresponds to that used in Table 1. […]

[2] = molecular target: BRG1 (Homo sapiens, UniProt P51532); test: Immunofluorescence assay for BRG1 degradation in SW1573 cells
Protocol: as §1, §2, §3

[3] = 20 hours incubation, normalized to a known degrader control

What does the source list for `Nc1nnc(-c2ccccc2O)cc1N1CC2CCC(C1)N2c1ccnc(C#CCN2CC[C@@H]3C[C@H]2C(O)C3O)c1` (stereo partly shown)?
BRM IF Degradation Sinf (%) [1, 3]: E (E indicates −30%-−70%); pIC50 ([1]; read-out: BRM IF Degradation IC50, 20 hours incubation, immunofluorescence mean nuclear signal): 7.00 to 8.00; BRG1 IF Degradation Sinf (%) [2, 3]: E (E indicates −30%-−70%); pIC50 ([2]; read-out: BRG1 IF Degradation IC50, 20 hours incubation, immunofluorescence mean nuclear signal): 7.00 to 8.00
